Source: paper PMC11470414, “In vitro assessment of Dracocephalum lindbergii for growth inhibition, apoptosis induction, and cytokine modulation against Leishmaniamajor” (Heliyon, 2024)

Test system: macrophage cell line (THP-1)
Assay: Toxicity on macrophages (MTT, CC50)
Assay type: cell-based
Protocol: The promastigote form of L. major (MRHO/IR/75/ER), the national standard isolate, was obtained from the Pasteur Institute of Iran and cultured at 25 °C in RPMI-1640 medium containing 10 % heat-inactivated FBS and 1 % penicillin/streptomycin. The THP-1 macrophage cell line, provided by the Kerman Leishmaniasis Research Center, was grown in Dulbecco's Modified Eagle Medium (DMEM) supplemented with 10 % FBS and 0.5 % antibiotics (Sigma, Poole, UK), and incubated at 37 °C with 5 % CO₂ [21].
To assess the impact of the D. lindbergii fraction on L. major promastigotes, amastigotes, and macrophages, cell viability was determined using the 3-(4,5-dimethylthiazol-2-yl)-2,5-diphenyl tetrazolium bromide (MTT). L. major in the logarithmic growth phase (1 × 10⁶) was plated in a 96-well microplate using RPMI-1640 medium supplemented with 10 % FBS and treated with different concentrations of the samples. The plates were then incubated. Subsequently, 10 μL of MTT (Sigma Chemical Co., St. Louis, MO) at a concentration of 5 mg/mL was added to each well. After incubation, DMSO was added to stop the reactions, and the optical density (OD) absorbance of the samples was measured at 570 nm using an ELISA plate reader (BioTek Company, USA). The results were analyzed by calculating the inhibition percentage through linear regression.

meglumine antimoniate [MAT]
Macrophage (24 h) CC50 (24 h): 780.3 ± 38.2
Macrophage (48h) CC50 (48 h): 758.3 ± 25.1
Macrophage (72h) CC50 (72 h): 744.9 ± 25.0
